Reference: publication PMC7588194, “Respiratory ß-2-Microglobulin exerts pH dependent antimicrobial activity” (Virulence, 2020)

Legend:
[1] = tested on: L. monocytogenes (ATCC BAA-679/EGD-e); test: Radial diffusion assay; assay type: cell-based
Description: To identify library fractions and purified peptides with antibacterial activity a radial diffusion assay was carried out. Bacteria were cultured in liquid THY broth (Todd-Hewitt Broth [Oxoid, CM0189B] supplemented with 0.5% yeast extract [BD, Miami, USA, 212,750]) at 37°C overnight in a 5% CO2 atmosphere, pelleted by centrifugation and washed in 10 mM sodium phosphate buffer. Following resuspension in 10 mM sodium phosphate buffer optical density was determined spectrophotometrically at 600 nm (OD600nm). Bacterial density was adjusted to seed 2 × 10^7 bacteria into a petri dish in 1% agarose dissolved in 10 mM sodium phosphate buffer. Plates were allowed to cool for 30 min at 4°C before several 2–3 mm holes were placed into the 1% agarose. Freeze-dried fractions of the BAL library pool were reconstituted in 200 µl of ddH2O with 10 µl being used for the initial screen. Alternatively, peptides adjusted to the desired concentration in 10 µl of ddH2O were filled into the agar-holes. Following incubation at 37°C in ambient air for 3 h plates were overlaid with 10 ml of a 1% agarose solution containing 3% tryptic soy broth (TSB) dissolved in 10 mM phosphate buffer. Inhibition zones in cm were determined following 16–18 h incubation time at 37°C in a 5% CO2 atmosphere. […] Fibrils were generated by incubation of B2M of 1 mg/ml in 150 µl of 20% TSB NaPO4 adjusted to pH 7 and pH 4.5 for 30 min at 37°C. After centrifugation, the supernatant was collected and the pelleted fibrils were dissolved in 150 µl of the corresponding buffer. The supernatant and the fibril solutions were then assayed in a radial diffusion assay as described above.

[2] = tested on: Bacillus subtilis; test: Radial diffusion assay; assay type: cell-based; settings: different amounts of B2M (Figure 3a)
Description: (§1) To identify library fractions and purified peptides with antibacterial activity a radial diffusion assay was carried out. Bacteria were cultured in liquid THY broth (Todd-Hewitt Broth [Oxoid, CM0189B] supplemented with 0.5% yeast extract [BD, Miami, USA, 212,750]) at 37°C overnight in a 5% CO2 atmosphere, pelleted by centrifugation and washed in 10 mM sodium phosphate buffer. Following resuspension in 10 mM sodium phosphate buffer optical density was determined spectrophotometrically at 600 nm (OD600nm). Bacterial density was adjusted to seed 2 × 10^7 bacteria into a petri dish in 1% agarose dissolved in 10 mM sodium phosphate buffer. Plates were allowed to cool for 30 min at 4°C before several 2–3 mm holes were placed into the 1% agarose. Freeze-dried fractions of the BAL library pool were reconstituted in 200 µl of ddH2O with 10 µl being used for the initial screen. Alternatively, peptides adjusted to the desired concentration in 10 µl of ddH2O were filled into the agar-holes. Following incubation at 37°C in ambient air for 3 h plates were overlaid with 10 ml of a 1% agarose solution containing 3% tryptic soy broth (TSB) dissolved in 10 mM phosphate buffer. Inhibition zones in cm were determined following 16–18 h incubation time at 37°C in a 5% CO2 atmosphere.

[3] = tested on: P. aeruginosa (ATCC 27853); test: Radial diffusion assay; assay type: cell-based; settings: different amounts of B2M (Figure 3a)
Description: as §1

[4] = tested on: L. monocytogenes cells (ATCC BAA-679/EGD-e); test: Survival assay (CFU); assay type: cell-based; settings: B2M 1 mg/ml, 37°C
Description: L. monocytogenes cells (ATCC BAA-679/EGD-e) were grown in THY broth at 37°C in a 5% CO2 atmosphere overnight. 1 ml of the culture adjusted to an OD600nm of 0.1 was centrifuged and the bacterial pellet was resuspended in 1 ml of assay medium (20% TSB dissolved in 20 mM NaPO4 adjusted to different pH values). 90 μl of the bacterial suspension was mixed with 10 μl of the desired concentration of B2M (Lee BioSolutions, St. Louis, Missouri, 126-12-10) or with 10 μl of ddH2O (negative control) followed by incubation at 37°C. Samples were taken at the indicated time points, dilutions were prepared and plated on Sheep blood agar plates (TSA+SB, Oxoid, Basingstoke, UK, […]). Colony Forming Units (CFU) were quantified after overnight incubation of the agar plates at 37°C in a 5% atmosphere. Bacterial survival was calculated in comparison to the CFU present at the beginning of the experiment (t = 0 min) and normalized to the mock-treated bacterial sample grown in the corresponding assay medium.

[5] = tested on: L. monocytogenes (ATCC BAA-679/EGD-e); test: Sytox green membrane permeabilization; assay type: cell-based; settings: B2M 1 mg/ml, up to 1 h; especially at pH 5.5 and 4.5, visible after 15 min
Description: Two different readouts (fluorescence plate reader and flow cytometer) were used to measure Sytox green (Invitrogen, Thermo Fisher Scientific, Dreieich, Germany […]) uptake into bacterial cells. For samples analyzed by the flow cytometer, an equivalent of 100 μl of a L. monocytogenes (ATCC BAA-679/EGD-e) culture grown to an OD600nm of 0.1 were harvested by centrifugation and resuspended in 20% TSB dissolved in 20 mM NaPO4 adjusted to three different pH values (pH 7, pH 5.5, pH 4.5). The samples were treated with B2M at a concentration of 1 mg/ml or were mock-treated with ddH2O. After incubation at 37°C for 1 h, the cells were pelleted and resuspended in 20% TSB NaPO4 adjusted to pH 7, pH 5.5, and pH 4.5 containing 0.02 μM Sytox green stain. Quantification was done by FACS analysis. Bacteria treated with 70% isopropanol served as positive control, mocked treated cells (ddH2O) served as negative control. The percentage of Sytox positive cells is depicted by normalizing the analyzed samples to the positive control. L. monocytogenes cells analyzed by fluorescence plate reader were grown till an OD600nm of 0.1 was obtained. Bacterial cells were centrifuged and the pellet was resuspended in one volume of 20% TSB NaPO4 adjusted to pH 7, pH 5.5 and pH 4.5 with 0.2 μM Sytox. […] The fluorescence intensity was measured with a Tecan infinite M plate reader using an excitation wavelength of 488 nm. […]

[6] = tested on: L. monocytogenes cells; test: Transmission electron microscopy (TEM); assay type: cell-based; settings: B2M 1 mg/ml, 15 min, pH 4.5
Description: L. monocytogenes cells, grown to mid-exponential phase, were harvested by centrifugation and resuspended in 20% TSB dissolved in 20 mM NaPO4 (pH 4.5). Following treatment of 5 × 10^9 cells with 1 mg/ml B2M for 15 min at 37°C cells were pelleted by centrifugation and fixed with 2.5% glutaraldehyde containing 1% saccharose in phosphate buffer (pH 7.3). Samples were washed 5 times with phosphate buffer and postfixed in 2% aqueous osmium tetroxide. After dehydrating the samples in a graded series of 1-propanol, they were blockstained in 1% uranyl acetate and embedded in Epon. Sections were collected on copper grids, contrasted with 0.3% lead citrate for 1 min and imaged in a Zeiss TEM 109 or in a Jeol TEM 1400.

[7] = Thioflavin T (ThT) measurement of amyloid fibrils; assay type: physicochemical; settings: ThT fluorescence ex 450 nm / em 482 nm, two independent experiments
Description: To monitor the presence of amyloid fibrils, a 2.5 mM stock solution of ThT (Sigma-Aldrich, Schnelldorf, Germany, […]) in PBS was prepared and sterile filtered. 1 μl of this solution was added to 15 μl of the peptide sample (1 mg/ml), then the sample was filled up to 100 μl using 84 μl of PBS and incubated for 10 minutes in the dark, at room temperature. Of each preparation, 50 μl were transferred to one well of a Corning® 96 well black polystyrene microplate (Sigma-Aldrich, CLS3603). Fluorescence intensity scans were performed at an excitation wavelength of 450 nm and an emission at 482 nm, using a Synergy H1 hybrid multi-mode reader (Biotek, Bad Friedrichshall, Germany). All values represent fluorescence intensity derived from duplicates minus background activity derived from possible background fluorescence. Duplicates were expressed as mean ± standard error derived from two independent experiments.

B2M fibrils: pelleted mature B2M fibrils dissolved in assay buffer after incubation of B2M 1 mg/ml for 30 min at 37°C
zone of inhibition ([1]; B2M 1 mg/ml incubated 30 min 37°C at pH 4.5, fibril pellet dissolved in 150 µl assay buffer pH 4.5, undiluted): 0 cm
zone of inhibition ([1]; pH 4.5 fibrils, diluted 1:2): 0 cm
zone of inhibition ([1]; pH 4.5 fibrils, diluted 1:4): 0 cm
zone of inhibition ([1]; pH 4.5 fibrils, diluted 1:8): 0 cm
zone of inhibition ([1]; pH 4.5 fibrils, diluted 1:16): 0 cm
zone of inhibition ([1]; pH 7 fibrils (no visible fibril pellet was obtained after centrifugation), undiluted): 0 cm
zone of inhibition ([1]; pH 7 fibrils (no visible pellet), diluted 1:2): 0 cm
zone of inhibition ([1]; pH 7 fibrils (no visible pellet), diluted 1:4): 0 cm
zone of inhibition ([1]; pH 7 fibrils (no visible pellet), diluted 1:8): 0 cm
zone of inhibition ([1]; pH 7 fibrils (no visible pellet), diluted 1:16): 0 cm

ß-2-microglobulin [B2M]
zone of inhibition ([1]; control B2M 125 µg/ml, mean ± SD): 1.03 ± 0.05 cm
zone of inhibition ([1]; control B2M 1 mg/ml, mean ± SD): 1.33 ± 0.05 cm
inhibition zone diameter ([1]; pH modified agarose, pH 4.5): exceeding 1 cm
antimicrobial activity ([1]; pH modified agarose, pH values of 6 and above): no antimicrobial activity
lowest concentration at which dose-dependent antibacterial activity was still detected ([1]; radial diffusion assay, three independent experiments (Figure 3b)): 7.5 mg/L
growth inhibition [2]: clear dose-dependent growth inhibition
growth inhibition [3]: clear dose-dependent growth inhibition
bacteria still viable (% survival compared to mock-treated) ([4]; pH 4.5, 2 hours): about 10%
bacteria still viable (% survival compared to mock-treated) ([4]; pH 5.5, 2 hours): about 10%
survival rate ([4]; pH 7, 2 hours): 90%
Sytox green uptake (fluorescence) versus controls [5]: increased fluorescence
intact bacterial cells in TEM [6]: substantial reduction of intact bacterial cells
aggregation state / fibril formation (ThT) ([7]; pH 4.5, 30 min at 37°C, B2M 1 mg/ml): fibril formation
aggregation state / fibril formation (ThT) ([7]; pH 7, B2M working solution 1 mg/ml): non-aggregated form

B2M supernatant: supernatant of B2M solution after fibril formation and centrifugation; contains monomers, oligomers, possibly small fragmented fibrils
zone of inhibition ([1]; B2M 1 mg/ml incubated 30 min 37°C in assay buffer pH 4.5, supernatant after centrifugation, undiluted, mean ± SD): 1.03 ± 0.05 cm
zone of inhibition ([1]; B2M 1 mg/ml incubated 30 min 37°C in assay buffer pH 7, supernatant after centrifugation, undiluted, mean ± SD): 0.27 ± 0.05 cm
zone of inhibition ([1]; pH 4.5 supernatant, diluted 1:2, mean ± SD): 0.90 ± 0.00 cm
zone of inhibition ([1]; pH 4.5 supernatant, diluted 1:4, mean ± SD): 0.83 ± 0.05 cm
zone of inhibition ([1]; pH 4.5 supernatant, diluted 1:8, mean ± SD): 0.63 ± 0.05 cm
zone of inhibition ([1]; pH 4.5 supernatant, diluted 1:16, mean ± SD): 0.43 ± 0.05 cm
zone of inhibition ([1]; pH 7 supernatant, diluted 1:2): 0 cm
zone of inhibition ([1]; pH 7 supernatant, diluted 1:4): 0 cm
zone of inhibition ([1]; pH 7 supernatant, diluted 1:8): 0 cm
zone of inhibition ([1]; pH 7 supernatant, diluted 1:16): 0 cm
